Experimental data published in patent publication US20100311642A1, “USE OF V2 RECEPTOR ANTAGONISTS IN COMBINATION WITH VASO PRESSINERGIC AGNOSTS” (Ferring B.V., priority 2007, published 2010).

The chains behind the UniProt entries cited, without tags or fusion partners.
UniProt P37288, whole entry: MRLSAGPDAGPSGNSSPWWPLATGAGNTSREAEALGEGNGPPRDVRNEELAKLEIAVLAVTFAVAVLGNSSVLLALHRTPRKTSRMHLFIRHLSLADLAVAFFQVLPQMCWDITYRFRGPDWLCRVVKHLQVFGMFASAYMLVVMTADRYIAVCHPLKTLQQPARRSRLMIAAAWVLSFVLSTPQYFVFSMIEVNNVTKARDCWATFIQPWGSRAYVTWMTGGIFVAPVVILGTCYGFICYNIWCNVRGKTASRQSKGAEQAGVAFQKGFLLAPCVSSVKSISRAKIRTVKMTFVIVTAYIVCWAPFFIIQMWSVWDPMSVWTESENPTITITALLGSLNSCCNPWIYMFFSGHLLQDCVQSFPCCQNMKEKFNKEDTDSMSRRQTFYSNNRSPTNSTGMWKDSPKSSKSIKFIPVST
UniProt Q00788, whole entry: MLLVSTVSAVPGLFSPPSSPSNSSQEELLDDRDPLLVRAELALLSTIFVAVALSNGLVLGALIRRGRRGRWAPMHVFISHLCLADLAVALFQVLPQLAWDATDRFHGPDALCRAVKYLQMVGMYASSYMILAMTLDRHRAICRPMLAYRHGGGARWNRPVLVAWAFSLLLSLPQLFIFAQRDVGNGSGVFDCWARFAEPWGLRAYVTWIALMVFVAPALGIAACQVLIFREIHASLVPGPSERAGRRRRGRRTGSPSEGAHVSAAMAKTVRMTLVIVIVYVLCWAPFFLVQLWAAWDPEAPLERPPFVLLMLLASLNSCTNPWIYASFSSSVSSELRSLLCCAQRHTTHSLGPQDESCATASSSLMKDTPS
UniProt P30560, whole entry: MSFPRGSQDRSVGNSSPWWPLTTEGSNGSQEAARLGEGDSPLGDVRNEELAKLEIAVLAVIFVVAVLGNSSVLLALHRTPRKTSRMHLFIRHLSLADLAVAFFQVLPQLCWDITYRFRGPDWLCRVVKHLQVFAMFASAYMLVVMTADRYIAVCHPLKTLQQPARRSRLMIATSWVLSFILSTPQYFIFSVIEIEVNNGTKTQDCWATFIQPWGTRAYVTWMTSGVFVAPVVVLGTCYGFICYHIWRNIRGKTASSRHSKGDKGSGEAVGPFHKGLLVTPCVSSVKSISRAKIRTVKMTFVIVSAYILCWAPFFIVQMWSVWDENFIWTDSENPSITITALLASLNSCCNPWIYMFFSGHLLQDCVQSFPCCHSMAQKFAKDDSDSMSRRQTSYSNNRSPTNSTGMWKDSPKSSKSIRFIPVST

Key:
Format in all cases: cell-based
[1] = biological target: T1, human V2 receptor (hV2R) (Homo sapiens, UniProt P30518); assay: Antagonist transcriptional reporter gene assay, human V2 receptor; conditions: hV2, HEK-293 reporter gene, vs AVP; for Ki: Ki calculated from IC50, read-out: Geomean Ki
T1 construct: expressed in transfected cells; host or cells: HEK-293
Method: (§1) Agonist activity of compounds on the human V2 receptor (hV2R) and the rat V2 receptor (rV2R) was determined in a transcriptional reporter gene assay in which HEK-293 cells were transiently transfected with either the human or rat V2 receptor, and a reporter DNA containing cyclic-AMP responsive promoter elements regulating expression of firefly luciferase. See Castarion, M. J., Spevak, W., Biochem Biophys Res Commun.1994 Jan.
(§2) Antagonist activity of compounds on the human V2 receptor (hV2R) and the rat V2 receptor (rV2R) was determined in a transcriptional reporter gene assay as in section III.A; see Castañón, M. J. et al. supra. […] Ki values were calculated from IC50 values.

[2] = biological target: T2, human V1a receptor (hV1aR) (Homo sapiens, UniProt P37288); assay: Antagonist transcriptional reporter gene assay, human V1a receptor; conditions: hV1a, HEK-293 reporter gene, vs AVP; for Ki: Ki calculated from IC50, read-out: Geomean Ki
T2 construct: expressed in transfected cells; host or cells: HEK-293
Method: (§3) Agonist activity of compounds on the human V1a receptor (hV1aR) and the rat V1a receptor (rV 1 aR) was determined in a transcriptional reporter gene assay in which HEK-293 cells were transiently co-transfected with either the human or rat V1a receptor, and a reporter DNA containing intracellular calcium responsive promoter elements regulating expression of firefly luciferase.
(§4) Antagonist activity of compounds on the human V1a receptor (hV1aR) and the rat V1a receptor (rV 1 aR) was determined in a transcriptional reporter gene assay as in section III.A; see Boss, V. et al. supra. […] Ki values were calculated from IC50 values.

[3] = biological target: T3, rat V2 receptor (rV2R) (Rattus norvegicus, UniProt Q00788); assay: Antagonist transcriptional reporter gene assay, rat V2 receptor; conditions: rV2, HEK-293 reporter gene, vs AVP; Ki calculated from IC50; read-out: Geomean Ki
T3 construct: expressed in transfected cells; host or cells: HEK-293
Method: as §1, §2

[4] = biological target: T4, rat V1a receptor (rV1aR) (Rattus norvegicus, UniProt P30560); assay: Antagonist transcriptional reporter gene assay, rat V1a receptor; conditions: rV1a, HEK-293 reporter gene, vs AVP; for Ki: Ki calculated from IC50, read-out: Geomean Ki
T4 construct: expressed in transfected cells; host or cells: HEK-293
Method: as §3, with “luciferase. See Boss, V., Talpade, D. J., Murphy, T. J. J. Biol. Chem. 1996, May 3; 271(18), 10429-10432 for further guidance on this assay.” for “luciferase.”
as §4

[5] = biological target: T1, human V2 receptor (hV2R); assay: Agonist transcriptional reporter gene assay, human V2 receptor; conditions: hV2, HEK-293 reporter gene
[6] = biological target: T2, human V1a receptor (hV1aR); assay: Agonist transcriptional reporter gene assay, human V1a receptor; conditions: hV1a, HEK-293 reporter gene
[7] = biological target: T3, rat V2 receptor (rV2R); assay: Agonist transcriptional reporter gene assay, rat V2 receptor; conditions: rV2, HEK-293 reporter gene, 5 hours
[8] = biological target: T4, rat V1a receptor (rV1aR); assay: Agonist transcriptional reporter gene assay, rat V1a receptor; conditions: rV1a, HEK-293 reporter gene

[Pmp1,D-Ile2,Ile4,Arg8]vasopressin-(1-8)-OH [[Pmp1, D-Ile2, Ile4]AVP-(1-8)-OH]
Efficacy Antag [1]: 25% | Ki [1]: > 909 nM | Efficacy Antag [2]: 43% | Ki [2]: > 950 nM | Ki [3]: 36 nM | Efficacy Antag [4]: 26% | Ki [4]: > 338 nM

[Pmp1,D-Ile2,Ile4,Arg8]vasopressin [[Pmp1, D-Ile2, Ile4]AVP]
Efficacy Antag [1]: 72% | Ki [1]: 270 nM | Efficacy Antag [2]: 120% | Ki [2]: 163 nM | Ki [3]: 10 nM | Efficacy Antag [4]: 26% | Ki [4]: > 338 nM

ornithine vasopressin [[Orn8] Vasopressin, OVP]
Efficacy [5]: 97% | EC50 ([5]; 5 hours): 0.45 nM | Efficacy [6]: 99% | EC50 [7]: 0.37 nM | Efficacy [8]: 101%
